Experimental data from patent US6723724B2, “Isoxazolylalkylpiperazine derivatives having selective biological activity at dopamine D3 or D4 receptor, and preparation thereof” (priority 2000, dated 2004).

The chains behind the UniProt entries cited, without tags or fusion partners.
UniProt P21728, whole entry: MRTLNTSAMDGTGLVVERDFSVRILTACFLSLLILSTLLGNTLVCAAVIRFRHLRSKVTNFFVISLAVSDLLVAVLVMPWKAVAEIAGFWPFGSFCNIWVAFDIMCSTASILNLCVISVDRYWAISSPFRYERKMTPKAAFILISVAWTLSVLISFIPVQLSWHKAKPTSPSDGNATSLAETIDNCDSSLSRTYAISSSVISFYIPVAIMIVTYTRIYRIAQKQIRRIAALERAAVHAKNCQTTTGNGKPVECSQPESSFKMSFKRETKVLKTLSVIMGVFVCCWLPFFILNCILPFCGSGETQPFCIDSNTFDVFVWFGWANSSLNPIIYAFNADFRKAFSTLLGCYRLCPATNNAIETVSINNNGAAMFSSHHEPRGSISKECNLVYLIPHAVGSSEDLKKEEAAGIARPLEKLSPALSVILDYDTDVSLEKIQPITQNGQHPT
UniProt P14416, whole entry: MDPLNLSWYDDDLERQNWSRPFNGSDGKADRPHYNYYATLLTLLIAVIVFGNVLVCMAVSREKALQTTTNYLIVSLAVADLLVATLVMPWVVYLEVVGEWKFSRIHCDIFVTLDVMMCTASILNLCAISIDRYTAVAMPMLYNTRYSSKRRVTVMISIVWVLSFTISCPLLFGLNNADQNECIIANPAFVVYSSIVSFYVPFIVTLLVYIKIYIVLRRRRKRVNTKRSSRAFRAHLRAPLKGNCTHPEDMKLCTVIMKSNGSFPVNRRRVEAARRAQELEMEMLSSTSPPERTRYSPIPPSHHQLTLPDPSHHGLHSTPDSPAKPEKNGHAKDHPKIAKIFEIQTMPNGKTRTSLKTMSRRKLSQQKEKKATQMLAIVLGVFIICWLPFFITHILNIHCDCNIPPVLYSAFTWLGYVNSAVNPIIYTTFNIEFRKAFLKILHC
UniProt P35462, whole entry: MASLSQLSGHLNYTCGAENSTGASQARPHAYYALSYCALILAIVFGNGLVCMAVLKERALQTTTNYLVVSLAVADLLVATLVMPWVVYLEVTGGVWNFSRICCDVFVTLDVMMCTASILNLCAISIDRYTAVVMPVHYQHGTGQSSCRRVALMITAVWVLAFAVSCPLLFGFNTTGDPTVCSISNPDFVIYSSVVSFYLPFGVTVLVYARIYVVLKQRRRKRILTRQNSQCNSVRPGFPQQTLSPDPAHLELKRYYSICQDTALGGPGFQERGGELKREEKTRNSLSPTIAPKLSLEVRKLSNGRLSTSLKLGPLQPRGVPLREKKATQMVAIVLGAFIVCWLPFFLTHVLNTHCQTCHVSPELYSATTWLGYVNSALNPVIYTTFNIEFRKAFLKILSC
UniProt P21917, whole entry: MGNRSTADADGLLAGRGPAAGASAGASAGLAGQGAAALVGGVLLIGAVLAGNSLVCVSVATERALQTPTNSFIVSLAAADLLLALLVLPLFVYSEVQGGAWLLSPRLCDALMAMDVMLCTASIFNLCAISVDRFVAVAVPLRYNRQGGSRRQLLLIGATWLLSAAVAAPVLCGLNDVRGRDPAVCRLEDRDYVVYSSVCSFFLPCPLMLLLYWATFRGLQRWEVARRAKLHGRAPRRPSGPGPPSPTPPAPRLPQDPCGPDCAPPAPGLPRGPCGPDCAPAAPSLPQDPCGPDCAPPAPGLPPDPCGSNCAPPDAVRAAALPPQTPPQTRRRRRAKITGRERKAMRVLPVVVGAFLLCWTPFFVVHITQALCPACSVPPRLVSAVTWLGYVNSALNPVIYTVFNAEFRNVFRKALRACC

Assays:
[1] = target: dopamine D1 receptor (Homo sapiens, UniProt P21728); assay: Binding affinity to cloned human dopamine receptors (radioligand displacement), D1
[2] = target: dopamine D2 receptor (Homo sapiens, UniProt P14416); assay: Binding affinity to cloned human dopamine receptors (radioligand displacement), D2
[3] = target: dopamine D3 receptor (Homo sapiens, UniProt P35462); assay: Binding affinity to cloned human dopamine receptors (radioligand displacement), D3
[4] = target: dopamine D4 receptor (Homo sapiens, UniProt P21917); assay: Binding affinity to cloned human dopamine receptors (radioligand displacement), D4

How did the “Affinity to Dopamine Receptors (% Inhibition) D1” value ([1]; 1 µM test compound) turn out when c1ccc(-c2cc(CCCCN3CCN(c4ccccc4)CC3)on2)cc1 was run?
Its value is 58.9%.

And the IC50 ([1]; read-out: IC50 for Dopamine Receptors D1)?
The IC50 was 320 nM.

What about the “Affinity to Dopamine Receptors (% Inhibition) D2” value ([2]; 1 µM test compound) of the same compound?
Its value is 49.3%.

And the IC50 ([2]; read-out: IC50 for Dopamine Receptors D2)?
Its IC50 is 15.3 µM.

And the “Affinity to Dopamine Receptors (% Inhibition) D3” value ([3]; 1 µM test compound)?
The value was 110.4%.

What about the IC50 ([3]; read-out: IC50 for Dopamine Receptors D3) of the same compound?
The IC50 was 41 nM.

What about the “Affinity to Dopamine Receptors (% Inhibition) D4” value ([4]; 1 µM test compound) of the same compound?
Its value is 21.6%.

What about the IC50 ([4]; read-out: IC50 for Dopamine Receptors D4) of the same compound?
The IC50 was 832 nM.
